Tests used:
[1] = parameters: species or system Swiss albino mice; settings: mouse, in vivo, 5 min
Description: Whole blood was collected 5 min postinjection (pi), blood cells were removed and major proteins were precipitated and then the supernatant was analyzed by RP-HPLC coupled to a gamma detector.
Alternatively, the dual NEP and ACE inhibitor racecadotril (race; 2.5 mg) was ip injected 45-60 min prior to radioligand injection and the same procedure was followed as described above.
To test the in vivo stability, ^111In-DOTA-MG11 was injected in the tail vein of Swiss albino mice and 5 min afterwards blood was collected, blood cells were removed and major proteins were precipitated and then the supernatant was analyzed by RP-HPLC coupled to a gamma detector. As shown in the radiochromatogram of FIG. 3A, the major part of ^111In-DOTA-MG11 was consumed during this period (<5% intact peptide still detected), in agreement with previous reports. […]
For ex vivo blood analysis, [^99mTc]Demotensin 6 was injected in the tail vein of Swiss albino mice and blood collected 5 min thereafter was analyzed as previously described. […]
Additional groups of radiopeptides with relevance for nuclear medicine applications have been studied for their in vivo stability. […] Blood was collected 5 min afterwards, and analyzed by RP-HPLC after suitable preparation, as previously described.

[2] = tested on: human prostate adenocarcinoma PC-3 xenografts (GRPR+); parameters: species or system SCID mice; settings: SCID, mouse, in vivo, 4 h
Description: FIG. 6C: Biodistribution of [^99mTc]SAR-NC1 in SCID mice bearing human prostate adenocarcinoma PC-3 xenografts (GRPR^+) at 4 h pi.
In FIG. 6B and FIG. 7B, the biodistribution of [^99mTc]SAR-NC1 and [^99mTc]SAR-NC6 in SCID mice bearing human prostate adenocarcinoma PC-3 xenografts (GRPR^+) at 4 h respectively, after injection of the radioligand alone or with co-injection of PA (300 μg) are shown.
It is interesting to note that with co-injection of the blocker and PA tumor values were minimal (0.69±0.03% ID/g) showing that PA provoked a GRPR-mediated increase in tumor uptake.
The effect of PA-induced stabilization of [^99mTc]Demobesin 1 on tumor uptake is illustrated in FIG. 10B, showing the biodistribution at 4 h pi after injection of [^99mTc]Demobesin 1 in SCID mice bearing human PC-3 xenografts (GRPR^+) (control), or with PA (300 μg).

**Q.** For `CSCC[C@H](NC(=O)[C@H](CC(C)C)NC(=O)[C@H](Cc1c[nH]cn1)NC(=O)CN(C)C(=O)[C@@H](NC(=O)[C@H](C)NC(=O)[C@H](Cc1c[nH]c2ccccc12)NC(=O)[C@H](Cc1c[nH]cn1)NC(=O)[C@H](CC(N)=O)NC(=O)CNC(=O)C(CNCCN)CNCCN)C(C)C)C(N)=O` [[^99mTc]SAR-NC6, ^99mTc-N4-Gly-Asn-His-Trp-Ala-Val-Sar-His-Leu-Met-NH2, metal not drawn], which “percentage of parent peptide remaining intact” value [1] is on record?
**A.** 35%

**Q.** And the “uptake in PC-3 tumor” value [2]?
**A.** 9.22±1.40 % ID/g

— US11612667B2, “Enhanced in vivo targeting of radiolabelled peptides with the means of enzyme inhibitors” (Advanced Accelerator Applications USA, Inc., priority 2011, dated 2023)
